# Reference: US5783179A, “C-reactive protein fragment with immunomodulatory activity” (Syntex (U.S.A.) Inc., priority 1991, dated 1998)
# System: T241 fibrosarcoma
# Assay: Survival studies with T241 fibrosarcoma
# Format: in vivo, mice
# Conditions: 90 days after tumor implantation; groups of 30 animals; treatment after removal of primary tumor at day 17
# Procedure: The experimental protocol for these studies was similar to that of Example 3, with the exception that animals were observed over a period of 90 days following tumor implantation. Animals dying during that period were examined for lung metastases. At Day 90, all the surviving animals were killed and then examined for lung metastases.
# Animals were treated following removal of primary tumors 17 days after tumor implantation. Treatments consisted of: 1) No treatment; 2) MLV containing synthetic CRP peptide (SEQ ID No:1) (2.5 μmoles lipid containing 0.25 μg peptide, i.v. 3 times per week for 2 weeks); 3) soluble rIL-2 (10,000 U i.p. 5 consecutive times per week for 16 days for a total of 12 injections); and 4) regimens 2 and 3 together. Data represent percentage survival for groups of 30 animals at 90 days. CRP-Peptide MLV+rIL-2 vs all other groups, p=0.0001. CRP-peptide MLV vs control, p=0.0001 (Logrank Test).
substance,measurement,value
"regimen 3: soluble recombinant interleukin-2 (Cetus Corp.), 10,000 U i.p., 12 injections",percentage survival through the 90-day period,17%
